Key:
RARβ = molecular target: T1, RARβ (Homo sapiens, UniProt P10826); assay: Ligand binding assay, RARβ; conditions: receptor expressed in Baculovirus; Cheng-Prussof from IC50
T1 construct: made in house; used as extract protein
Experimental: (§1) A holoreceptor transactivation assay and a ligand binding assay which measure the ability of the compounds of the invention to bind to the several retinoid receptor subtypes, respectively, are described in published PCT Application No. WO W093/11755 (particularly on pages 30-33 and 37-41) published on Jun. 24, 1993, the specification of which is also incorporated herein by reference. A description of the ligand binding assay is also provided below.
(§2) All binding assays were performed in a similar fashion. All six receptor types were derived from the expressed receptor type (RAR α, β, Γ and RXR α, β, Γ) expressed in Baculovirus. Stock solutions of all compounds were prepared as 10 mM ethanol solutions and serial dilutions carried out into 1:1 DMSO; ethanol. […]
(§3) All receptor biding assays were performed in the same manner. […] The amount of receptor-ligand complex was determined by liquid scintillation counting of hydroxyapitite pellet.
(§4) After correcting for non-specific binding, IC50 values were determined. […] The IC50 value was determined graphically from a loglogit plot of the data. The […] were determined by application of the Cheng-Prussof equation to the IC50 values, the labeled ligand concentration and the Kd of the labeled ligand. […]

Protein sequences, listed by entry. Tags and fused reporters are not part of them.
UniProt P10826, whole entry, species assumed: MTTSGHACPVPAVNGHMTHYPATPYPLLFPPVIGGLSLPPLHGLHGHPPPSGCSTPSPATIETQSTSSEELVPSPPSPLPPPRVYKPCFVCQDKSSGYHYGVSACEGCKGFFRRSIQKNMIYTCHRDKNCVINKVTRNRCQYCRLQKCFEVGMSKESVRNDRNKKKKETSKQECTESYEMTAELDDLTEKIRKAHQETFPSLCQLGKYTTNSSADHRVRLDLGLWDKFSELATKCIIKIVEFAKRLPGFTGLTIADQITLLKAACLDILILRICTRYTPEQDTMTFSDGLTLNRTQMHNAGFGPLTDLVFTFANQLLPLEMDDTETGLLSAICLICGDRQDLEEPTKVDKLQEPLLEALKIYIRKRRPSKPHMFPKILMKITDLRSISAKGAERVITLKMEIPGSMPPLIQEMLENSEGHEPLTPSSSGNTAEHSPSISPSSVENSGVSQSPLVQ
UniProt P10276, whole entry, species assumed: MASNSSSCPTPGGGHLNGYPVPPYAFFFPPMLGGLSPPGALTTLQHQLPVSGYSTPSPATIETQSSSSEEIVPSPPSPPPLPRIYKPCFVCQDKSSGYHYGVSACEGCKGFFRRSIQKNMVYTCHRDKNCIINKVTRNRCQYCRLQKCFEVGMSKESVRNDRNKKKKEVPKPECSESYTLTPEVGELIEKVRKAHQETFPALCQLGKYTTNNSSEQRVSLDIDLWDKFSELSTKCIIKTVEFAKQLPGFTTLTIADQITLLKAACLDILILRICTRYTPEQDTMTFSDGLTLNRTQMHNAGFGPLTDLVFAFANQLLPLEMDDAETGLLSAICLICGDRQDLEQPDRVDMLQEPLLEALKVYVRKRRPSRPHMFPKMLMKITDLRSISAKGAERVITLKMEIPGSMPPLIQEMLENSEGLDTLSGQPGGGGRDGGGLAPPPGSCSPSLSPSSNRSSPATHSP
UniProt P13631, whole entry, species assumed: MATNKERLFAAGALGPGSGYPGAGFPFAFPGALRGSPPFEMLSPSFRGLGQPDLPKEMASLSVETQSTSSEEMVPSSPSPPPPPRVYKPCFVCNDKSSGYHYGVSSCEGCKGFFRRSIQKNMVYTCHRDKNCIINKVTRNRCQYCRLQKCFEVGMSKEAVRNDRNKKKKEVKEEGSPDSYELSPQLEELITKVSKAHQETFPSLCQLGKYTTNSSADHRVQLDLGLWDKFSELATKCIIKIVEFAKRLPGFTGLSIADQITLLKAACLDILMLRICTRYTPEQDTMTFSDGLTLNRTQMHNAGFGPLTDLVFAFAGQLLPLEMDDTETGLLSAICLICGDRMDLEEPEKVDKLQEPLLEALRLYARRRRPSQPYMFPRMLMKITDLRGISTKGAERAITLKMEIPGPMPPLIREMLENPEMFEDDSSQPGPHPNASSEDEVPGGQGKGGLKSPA

RARα = molecular target: T2, RARα (Homo sapiens, UniProt P10276); assay: Ligand binding assay, RARα; conditions: receptor expressed in Baculovirus; [3H] all-trans retinoic acid; Cheng-Prussof from IC50
T2 construct: made in house; used as extract protein
Experimental: as §1, §2, §3, §4

RARΓ = molecular target: T3, RARΓ (Homo sapiens, UniProt P13631); assay: Ligand binding assay, RARΓ; conditions: receptor expressed in Baculovirus; Cheng-Prussof from IC50
T3 construct: made in house; used as extract protein
Experimental: as §1, §2, §3, §4

2-Fluoro-4-[(3′,5′-di-t-butyl)phenylcarbamoyl]benzoic Acid [Compound 6]
Kd (RARβ): > 1000 nM | Kd (RARα): 26 nM | Kd (RARΓ): > 1000 nM
